Several values for one entry are separate records, joined by “and”; a condition that tells them apart may be missing. Identical values can stand only once.
Assays:
[1] = Description: All experiments were conducted on female athymic nude mice (Hsd:Athymic Nude-Foxn1nu) supplied by Harlan (Indianapolis, Ind.). Mice were received at four weeks of age, 12-15 grams in weight, and were acclimated for seven days prior to handling. The mice were housed in microisolator cages (Lab Products, Seaford, Del.) and maintained under specific pathogen-free conditions. All procedures were carried out under appropriate institutional guidelines for animal care.
Seven days following inoculation, tumors were measured using calipers and tumor weight was calculated using the animal study management software, Study Director V.1.7.54 k (Study Log). See Britten C D, et al. Enhanced antitumor activity of 6-hydroxymethylacylfulvene in combination with irinotecan and 5-fluorouracil in the HT29 human colon tumor xenograft model. Cancer Res 59:1049-1053, 1999. […] Body weights were recorded when the mice were randomized and were taken twice weekly thereafter in conjunction with tumor measurements, on each of Days 1, 4, 8, 11, 15, 18, 22, 26, 30, 33, and 36.
The study was terminated when the vehicle control reached an endpoint of 1500 mg, on Day 36.

[2] = test system: BxPC-3 Human Pancreas Tumor Xenograft; experiment: BxPC-3 human pancreas tumor xenograft model: tumor weight and tumor growth inhibition; format: in vivo, mouse; conditions: Day 26 vs Day 1, relative to vehicle control (Group 1); deaths not included
Description: Compounds tested in the experiment were as follows. […] A concentration of 4.8 mg/ml was formulated to deliver a 24 mg/kg dose at a 5 ml/kg dose volume when administered subcutaneously. […] Nab-paclitaxel was manufactured by Abraxis BioScience LLC (Bridgewater, N.J.) and diluted in a 0.9% NaCl solution to a concentration of 1.5 mg/ml to deliver 15 mg/kg, in a 10 ml/kg dose volume. All standard agent preparations were made fresh prior to their administration.
BxPC-3 cells were obtained and prepared as follows. The BxPC-3 pancreas tumor cell line was received from American Type Culture Collection (ATCC, Manassas, Va.). Cultures were maintained in RPMI 1640 medium (Hyclone, Logan, Utah) supplemented with 5% fetal bovine serum. The cells were housed in a 5% CO2 atmosphere. The cultures were expanded in tissue culture flasks at a 1:3 split ratio until a sufficient amount of cells were harvested. […]
Seven days following inoculation, tumors were measured using calipers and tumor weight was calculated using the animal study management software, Study Director V.1.7.54 k (Study Log). […] Body weights were recorded when the mice were randomized and were taken twice weekly thereafter in conjunction with tumor measurements, on each of Days 1, 4, 8, 11, 15, 18, 22, 26, 30, 33, and 36. […]
Mean tumor growth inhibition (TGI) was calculated utilizing Formula A below (deaths were not included in the TGI calculations). […]

Structure (SMILES) | Day 4 Average Weight ([1]; Day 4) [g] | Day 8 Average Weight ([1]; Day 8) [g] | Day 11 % Weight Loss or Gain ([1]; Day 11, vs starting weight) [%] | Day 18 Average Weight ([1]; Day 18) [g] | Day 26 % TGI [2] | Day 22 Average Weight ([1]; Day 22) [g]
O=C1[O][Pt]2([NH][C@@H]3CCCC[C@H]3[NH]2)[O]C1=O [Oxaliplatin] | 20.40 | 20.65 | −3.36 | 20.45 | – | –
Nc1ccn([C@@H]2O[C@H](CO)[C@@H](O)C2(F)F)c(=O)n1 [Gemcitabine] | – | – | – | – | 15.3% and 15.3 (10/10) % | 24.41
